Converted amounts (≈) assume the structure as drawn.

In PMC8436411 (ACS Medicinal Chemistry Letters, 2021) one finds MIC data, which are given here for one molecule.

Common to all, as to test: microbe, parasite or virus in culture
In experiment [1] the test system is E. coli N43 (CGSC no. 5583). As to conditions: Escherichia coli, read-out: MIC E. coli N43 (CGSC# 5583).
Experiment [2] has as its system MRSA (QA-12.1). As to conditions: Staphylococcus aureus, read-out: MIC MRSA (QA-12.1).
Experiment [3] deals with MRSA (QA-11.7). Conditions: Staphylococcus aureus, read-out: MIC MRSA (QA-11.7).
Experiment [4] has as its system Streptococcus agalactiae RDK 047 (QA-990/02). Conditions: read-out: MIC S. agalactiae RDK 047 (QA-990/02).
Experiment [5] deals with E. coli D22. Conditions: Escherichia coli, D22, read-out: MIC E. coli D22.

In the case of `COc1ccc2nccc(CCN3CCC(NCc4cc(F)c(Br)c(F)c4)CC3)c2n1` [Compound 8], the MIC in experiment [1] amounted to 0.016 µM (≈ 0.00786 µg/mL); in experiment [2], 0.016 µg/mL (≈ 0.0326 µM); in experiment [3], 0.016 µg/mL (≈ 0.0326 µM); in experiment [4], 0.509 µM (≈ 0.25 µg/mL); in experiment [5], 0.016 µg/mL (≈ 0.0326 µM).
